Reference: patent publication US8007996B2, “Methods to identify protein arginine deiminase 4 inhibitors” (University of South Carolina, priority 2007, dated 2011)

Sequences of proteins named here, by UniProt entry; tags and fusion partners are left off.
UniProt Q9UM07, whole entry: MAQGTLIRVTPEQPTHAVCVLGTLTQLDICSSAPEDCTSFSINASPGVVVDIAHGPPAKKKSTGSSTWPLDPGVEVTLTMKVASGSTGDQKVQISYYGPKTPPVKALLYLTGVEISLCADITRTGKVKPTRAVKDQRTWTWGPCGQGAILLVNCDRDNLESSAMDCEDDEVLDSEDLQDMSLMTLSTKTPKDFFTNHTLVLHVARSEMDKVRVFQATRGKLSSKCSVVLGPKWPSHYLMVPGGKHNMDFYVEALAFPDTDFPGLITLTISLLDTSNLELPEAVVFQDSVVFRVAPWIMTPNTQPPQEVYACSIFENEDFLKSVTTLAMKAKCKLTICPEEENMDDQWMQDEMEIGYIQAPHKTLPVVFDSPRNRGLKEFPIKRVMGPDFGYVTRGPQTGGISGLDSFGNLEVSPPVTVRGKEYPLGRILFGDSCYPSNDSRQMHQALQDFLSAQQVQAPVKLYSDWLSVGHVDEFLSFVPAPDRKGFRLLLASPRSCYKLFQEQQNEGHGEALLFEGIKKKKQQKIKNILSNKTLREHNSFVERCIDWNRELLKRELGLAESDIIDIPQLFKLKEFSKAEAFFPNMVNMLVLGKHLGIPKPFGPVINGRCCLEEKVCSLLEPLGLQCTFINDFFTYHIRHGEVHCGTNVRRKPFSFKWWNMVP

Assays:
PAD4 [1] = target: T1, PAD4 (Homo sapiens, UniProt Q9UM07); assay: Standard PAD4 assay (citrulline formation from BAEE), IC50 studies; type: biochemical; details: 1 mM BAEE, 0.2 μM PAD4, 15 min pre-incubation at 37° C.
T1 construct: made in house
Source text: Reactions were quenched by flash freezing in liquid N2. The amount of Cit produced was then quantified according to methods known in the art. […] Inhibition Studies.

PAD4 [2] = target: T1, PAD4; assay: Inhibition studies: kinetic analysis of PAD4 activity versus BAEE concentration; type: biochemical; details: BAEE 0-20 mM, 0.2 μM PAD4; read-out: Kis
Protocol: PAD4 activity was measured as a function of substrate concentration in the absence and presence of increasing concentrations of each inhibitor.
Briefly, the compounds were incubated in Reaction Buffer containing various concentrations of BAEE (0-20 mM) for 10 minutes at 37° C. PAD4 (0.2 μM) was then added to initiate the reaction and allowed to proceed for 6 additional minutes. Reactions were then quenched by flash freezing in liquid N2 and the amount of Cit produced was quantified.
[formula] using GraFit version 5.0.11.

Row | Structure (SMILES) | IC50 (PAD4 [1]) [µM] | Ki (PAD4 [2]) [µM]
1 | C[C@H]1c2cccc(O)c2C(=O)C2=C(O)[C@]3(O)C(=O)C(C(N)=O)=C(O)[C@@H](N(C)C)[C@@H]3[C@@H](O)[C@@H]21 [Doxycycline] | 860 ± 80 | –
2 | [H]/N=C(/N)N[C@H]1[C@H](O)[C@@H](O)[C@H](O[C@@H]2O[C@@H](C)[C@](O)(C=O)[C@H]2O[C@@H]2O[C@@H](CO)[C@H](O)[C@@H](O)[C@@H]2NC)[C@@H](N/C(N)=N\[H])[C@@H]1O [Streptomycin] | 1800 | 560 ± 170
